Data from ChEMBL document CHEMBL1649436, “Antiviral activity of MK-4965, a novel nonnucleoside reverse transcriptase inhibitor” (Antimicrob Agents Chemother, 2009).

Molecular target: Human immunodeficiency virus type 1 reverse transcriptase (Human immunodeficiency virus 1, UniProt Q72547)
Experiment: Inhibition of HIV1 isolate R8 reverse transcriptase after 90 mins

Cc1cc(C#N)cc(C)c1Oc1nc(Nc2ccc(C#N)cc2)nc(N)c1Br [ETRAVIRINE]
IC50: 0.6 nM
